Measurements taken from patent US20200024370A1.

Target: Zn-NpuN, N-terminal Npu DnaE intein segment (cysteine-free) with the sensitivity-enhancing (zinc-binding) motif GDGHG at its N-terminus, coupled to SulfoLink resin (Nostoc punctiforme)
Assay: cell-based or functional assay

on-column C-terminal cleavage after shift to pH 6.2, 5 hours (SDS-PAGE): > 80%
Substance: NpuC^HN-MBP, C-terminal intein segment with serine to histidine mutation fused to maltose binding protein (from UniProt P0AEX9 27-392)
